Here are results for 2 molecules from PubChem BioAssay AID910 (National Center for Advancing Translational Sciences (NCATS), 2007).

This is a selection; strong and weak results do not stand in their true shares. Calls of active or inactive are those of the source. Calls come from the whole dose curve; as a rule, active = well fitted activation curve with a large enough effect; inconclusive = small, poorly fitted or top-dose-only effect; inactive = flat fitted curve, though single readings scatter.

This assay can be described thus: Confirmation and Secondary Assay for Modulators of Hemoglobin Beta Chain Splicing at IVS2 654 locus.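 Note: HeLa cells stably carrying EGFP split by mutant beta-globin IVS2-654 intron; per-well total GFP intensity by laser scanning cytometry after 2-day treatment; % of control where 0% means no effect.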 Conditions: HeLa EGFP-654 splicing reporter, GFP fluorescence, 48 h; at 46.1 µM (top of the series) unless noted. The text has this: NIH Chemical Genomics Center [NCGC] NIH Molecular Libraries Screening Centers Network [MLSCN] MLSCN Grant: 1 X01 MH080684-01 PI Name: Dr. Ryszard Kole NCGC Assay Overview: Modulation of Alternative Splicing as Therapy Abnormal splicing is associated with a number of diseases, including cancer and genetic diseases such as cystic fibrosis, muscular dystrophy and beta-thalassemia. Alteration of disease associated splicing patterns provides a promising target for treatment. […] Mutations in the second intron of the b-globin gene at positions 654 or 705 are clinically relevant and cause mis-splicing which results in an out of frame gene product. […] EGFP-654 HeLa Cells as screen system. HeLa cell lines were stably transfected with a construct in which the EGFP (enhanced green fluorescent protein) cDNA was interrupted by the second intron of the beta-globin gene (IVS2-654). The ISV2 intron contains mutations which cause mis-splicing of EGFP and premature termination of EGFP which results in a nonfluorescent protein product. […]
NCGC Assay Protocol Summary: Confirmatory Screening. […] Plates were read in the Acumen Explorer (TTP Labtech) using 488 nm laser excitation and 500-520 nm emission PMT filter in a 1 x 8 uM capture mode. Fluorescnet objects ranging in size from 5 to 250 uM were measured and the total peak GFP intensity for each well was used for data analysis. […]
As to `CCN(CCCl)Cc1ccccc1C`, the activation (splicing correction) is inactive: 0.322% [at 38.3 µM].

Turning to `OCCSCCO`, the activation (splicing correction) is inactive: 1.17%.
